Experimental data from PMC5645313, “Tyrosine phosphorylation of the GARU E3 ubiquitin ligase promotes gibberellin signalling by preventing GID1 degradation” (Nature Communications, 2017).

Protein sequences, listed by entry. Tags and fused reporters are not part of them. Residues count along the entry.
UniProt Q9LJL9, 2-599: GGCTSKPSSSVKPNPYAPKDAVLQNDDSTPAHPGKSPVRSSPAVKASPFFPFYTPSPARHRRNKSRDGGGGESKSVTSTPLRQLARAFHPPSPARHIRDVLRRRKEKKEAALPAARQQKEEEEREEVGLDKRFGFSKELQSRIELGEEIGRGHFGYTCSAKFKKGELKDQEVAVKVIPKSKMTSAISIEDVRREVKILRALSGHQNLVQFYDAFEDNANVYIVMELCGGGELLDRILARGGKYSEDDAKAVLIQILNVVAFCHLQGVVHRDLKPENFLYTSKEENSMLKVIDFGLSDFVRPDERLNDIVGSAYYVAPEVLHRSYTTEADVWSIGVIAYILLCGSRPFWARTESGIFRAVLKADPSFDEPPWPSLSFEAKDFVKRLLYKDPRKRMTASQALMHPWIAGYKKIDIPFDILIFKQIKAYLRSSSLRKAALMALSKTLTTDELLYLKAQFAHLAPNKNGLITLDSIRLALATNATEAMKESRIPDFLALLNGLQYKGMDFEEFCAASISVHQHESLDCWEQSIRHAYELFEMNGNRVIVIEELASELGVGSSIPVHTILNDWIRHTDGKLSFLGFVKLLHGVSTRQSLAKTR

Molecular target: TAGK2 (CRK2) (Arabidopsis thaliana, UniProt Q9LJL9)
Assay: biochemical

pIC50: 8.59
SMILES: O=c1c(-c2ccc(O)cc2)coc2cc(O)cc(O)c12 [GNS, genistein]

pIC50: −log10 of the molar value.
